The values that follow come from ChEMBL document CHEMBL1130370, “Novel hydroxyphosphonate inhibitors of CD-45 tyrosine phosphatase” (Bioorg Med Chem Lett, 1997).

Amino acid sequences for entries named in this document (tags omitted). Residues count along the entry.
UniProt P08575, 26-1306 limits assumed: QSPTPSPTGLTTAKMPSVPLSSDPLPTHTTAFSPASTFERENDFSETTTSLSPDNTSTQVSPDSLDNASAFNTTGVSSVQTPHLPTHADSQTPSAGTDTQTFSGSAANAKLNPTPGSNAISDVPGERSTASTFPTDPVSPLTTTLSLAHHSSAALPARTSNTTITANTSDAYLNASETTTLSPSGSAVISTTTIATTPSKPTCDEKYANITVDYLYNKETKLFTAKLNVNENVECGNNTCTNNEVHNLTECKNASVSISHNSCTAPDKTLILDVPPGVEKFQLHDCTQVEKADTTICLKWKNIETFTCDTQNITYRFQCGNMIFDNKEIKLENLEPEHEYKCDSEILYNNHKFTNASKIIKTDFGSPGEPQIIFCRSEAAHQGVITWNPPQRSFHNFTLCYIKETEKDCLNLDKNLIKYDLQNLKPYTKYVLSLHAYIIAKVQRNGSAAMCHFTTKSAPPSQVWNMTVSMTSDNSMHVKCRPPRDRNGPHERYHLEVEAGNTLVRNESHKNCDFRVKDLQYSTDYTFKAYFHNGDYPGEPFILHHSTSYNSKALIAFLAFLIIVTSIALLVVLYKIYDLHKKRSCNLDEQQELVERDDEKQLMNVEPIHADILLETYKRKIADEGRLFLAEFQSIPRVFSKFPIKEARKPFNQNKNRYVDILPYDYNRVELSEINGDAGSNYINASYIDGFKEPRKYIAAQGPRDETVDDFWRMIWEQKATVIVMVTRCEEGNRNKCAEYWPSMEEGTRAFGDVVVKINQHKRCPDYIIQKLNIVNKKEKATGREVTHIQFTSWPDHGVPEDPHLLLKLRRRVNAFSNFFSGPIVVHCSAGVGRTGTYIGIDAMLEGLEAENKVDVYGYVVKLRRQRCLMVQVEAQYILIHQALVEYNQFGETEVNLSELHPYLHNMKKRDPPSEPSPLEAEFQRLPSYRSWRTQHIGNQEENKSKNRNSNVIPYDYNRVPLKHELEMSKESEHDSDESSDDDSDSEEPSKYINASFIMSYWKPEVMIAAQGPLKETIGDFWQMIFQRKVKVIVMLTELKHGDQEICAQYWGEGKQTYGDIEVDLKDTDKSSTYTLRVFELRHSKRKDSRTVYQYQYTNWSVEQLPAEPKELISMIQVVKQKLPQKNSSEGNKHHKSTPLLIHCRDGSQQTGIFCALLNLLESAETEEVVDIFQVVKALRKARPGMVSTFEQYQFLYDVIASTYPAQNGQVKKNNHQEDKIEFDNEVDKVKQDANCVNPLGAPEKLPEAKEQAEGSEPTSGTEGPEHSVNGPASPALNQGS

This test has as its target Receptor-type tyrosine-protein phosphatase C (Homo sapiens, UniProt P08575). The test can be described thus: Tested for inhibitory activity against CD-45 tyrosine phosphatase of Jurkat cell membrane at 1000 uM.

Structures are written as SMILES.

In the case of `[N-]=[N+]=Nc1ccc([N+](=O)[O-])cc1C(O)P(=O)(O)O` (stereo unspecified), the IC50 (in general, the point on the concentration scale where inhibition reaches its midpoint) is 8 µM. This lies in the single-digit micromolar range.
